Literature values as cited in patent US12303497B2, “Anti-androgens for the treatment of metastatic castration-sensitive prostate cancer” (priority 2019, dated 2025).

Test system: prostate cancer cells rendered castration resistant via overexpression of AR
Details: literature; cited from earlier work

CNC(=O)c1ccc(N2C(=S)N(c3cnc(C#N)c(C(F)(F)F)c3)C(=O)C23CCC3)cc1F [Apalutamide, 4-[7-(6-cyano-5-trifluoromethylpyridin-3-yl)-8-oxo-6-thioxo-5,7-diazaspiro[3.4]oct-5-yl]-2-fluoro-N-methylbenzamide]
Agonist activity in the context of AR overexpression: lacks the partial agonist activity
